Measurements taken from article PMC6321168, “Comparative Study on Excretive Characterization of Main Components in Herb Pair Notoginseng-Safflower and Single Herbs by LC–MS/MS” (Pharmaceutics, 2018).

Experiment: Fecal excretion study in rats after oral NS, SF or CNS (LC–MS/MS)
Type: in vivo
Settings: for Accumulative excretion amount / Accumulative excretion percentage / Concentration / Excretion amount: rat feces
Protocol: The animal room was set at constant temperature of 20 ± 2 °C with humidity of 50 ± 20% and 12/12 h light/dark cycle.
Eighteen male rats were fasted for 12 h before starting the experiment. The rats were divided into three groups at random (n = 6) and received NS (60 mg/kg), SF (50 mg/kg), and NS (60 mg/kg) + SF (50 mg/kg), respectively, by oral gavage. The rats were placed in separate metabolic cages. The urine samples were collected at 0–2, 2–4, 4–6, 6–8, 8–12, 12–24, 24–36, 36–48, 48–72, 72–96, and 96–120 h. The feces samples were collected at 0–4, 4–8, 8–12, 12–24, 24–36, 36–48, 48–72, 72–96, and 96–120 h. The urine volume was recorded and the dry feces were measured for each collection period. Samples were stored at −80 °C until analysis.
Feces samples were homogenized in ultrapure water (1 g/15 mL), soaked for 30 min, ultrasonically extracted for 30 min and centrifuged at 9000 rpm for 8 min. An aliquot of 200 μL feces water extraction solution was mixed with 10 μL of IS and then extracted three times with water-saturated n-BuOH (150 μL). The upper organic phase was combined and evaporated to dryness using a ZLS-2 vacuum centrifugal concentrator. The residue was treated as the urine sample and a 1-μL aliquot was injected for LC–MS analysis.
Ultra fast liquid chromatography (UFLC) analysis was performed using a Shimadzu UFLC system (DGU-20A3R Degasser; LC-20AD pump; SIL-20AXR Autosampler; CTO-20AC Column Oven) (Nakagyo-Ku, Koyoto, Japan). […] Because of the different endogenous substances in the urine and feces samples, different elution gradients were used to alleviate the matrix effects for the analytes.
The mass spectrometric detection was performed on an ABSciex 4500 Qtrap mass spectrometer (ABSciex, Foster City, CA, USA) equipped with a negative electrospray ionization (ESI) interface using multiple reaction monitoring (MRM). The MS parameters were optimized under the selected ion monitoring conditions as follows: curtain gas, 35 psi; ionspray voltage, 4500 V; turbo gas temperature, 450 °C; GS1, 45 psi; GS2, 45 psi. All data were acquired and analyzed by Analyst software (Versions 1.6.2) from ABSciex.
The accumulative excretion percentage was calculated for each analyte as follows. Excretion at time (t) = [concentration of the analyte (ng/mL) at t] × total urine (or feces) volume (mL) at t. The cumulative excretion up to time t (mg) was expressed as a percent (%) cumulative excretion by dividing by the total amount of the analyte ingested (mg): % Cumulative Excretion = 100 × (Σt excretiont) total ingested.

Accumulative excretion amount (oral CNS 110 mg/kg, 4 h): 21.012 ± 30.299 µg
Accumulative excretion percentage (oral CNS 110 mg/kg, 4 h): 2.084±3.005%
Concentration (oral CNS 110 mg/kg, 4 h): 1646 ± 2261 ng/mL
Excretion amount (oral CNS 110 mg/kg, 4 h): 21.013 ± 30.299 µg
Accumulative excretion amount (oral CNS 110 mg/kg, 8 h): 52.277 ± 28.669 µg
Accumulative excretion percentage (oral CNS 110 mg/kg, 8 h): 5.171±2.844%
Concentration (oral CNS 110 mg/kg, 8 h): 2095 ± 121 ng/mL
Excretion amount (oral CNS 110 mg/kg, 8 h): 31.265 ± 8.953 µg
Accumulative excretion amount (oral CNS 110 mg/kg, 12 h): 76.537 ± 34.048 µg
Accumulative excretion percentage (oral CNS 110 mg/kg, 12 h): 7.572±3.374%
Concentration (oral CNS 110 mg/kg, 12 h): 1660 ± 349 ng/mL
Excretion amount (oral CNS 110 mg/kg, 12 h): 24.260 ± 6.796 µg
Accumulative excretion amount (oral CNS 110 mg/kg, 24 h): 104.243 ± 34.486 µg
Accumulative excretion percentage (oral CNS 110 mg/kg, 24 h): 10.316±3.415%
Concentration (oral CNS 110 mg/kg, 24 h): 1829 ± 220 ng/mL
Excretion amount (oral CNS 110 mg/kg, 24 h): 27.706 ± 9.755 µg
Accumulative excretion amount (oral CNS 110 mg/kg, 36 h): 115.284 ± 36.570 µg
Accumulative excretion percentage (oral CNS 110 mg/kg, 36 h): 11.401±3.623%
Concentration (oral CNS 110 mg/kg, 36 h): 737 ± 37 ng/mL
Excretion amount (oral CNS 110 mg/kg, 36 h): 11.040 ± 3.298 µg
Accumulative excretion amount (oral CNS 110 mg/kg, 48 h): 125.551 ± 38.391 µg
Accumulative excretion percentage (oral CNS 110 mg/kg, 48 h): 12.422±3.804%
Concentration (oral CNS 110 mg/kg, 48 h): 688 ± 47 ng/mL
Excretion amount (oral CNS 110 mg/kg, 48 h): 10.267 ± 3.026 µg
Accumulative excretion amount (oral CNS 110 mg/kg, 72 h): 126.560 ± 38.340 µg
Accumulative excretion percentage (oral CNS 110 mg/kg, 72 h): 12.521±3.795%
Concentration (oral CNS 110 mg/kg, 72 h): 68 ± 28 ng/mL
Excretion amount (oral CNS 110 mg/kg, 72 h): 1.049 ± 0.586 µg
Accumulative excretion amount (oral CNS 110 mg/kg, 96 h): 126.874 ± 38.274 µg
Accumulative excretion percentage (oral CNS 110 mg/kg, 96 h): 12.556±3.795%
Concentration (oral CNS 110 mg/kg, 96 h): 17 ± 16 ng/mL
Excretion amount (oral CNS 110 mg/kg, 96 h): 0.274 ± 0.283 µg
Accumulative excretion amount (oral CNS 110 mg/kg, 120 h): 126.874 ± 38.274 µg
Accumulative excretion percentage (oral CNS 110 mg/kg, 120 h): 12.556±3.796%
Accumulative excretion amount (oral SF 50 mg/kg, 4 h): 43.994 ± 12.319 µg
Accumulative excretion percentage (oral SF 50 mg/kg, 4 h): 4.352±1.224%
Concentration (oral SF 50 mg/kg, 4 h): 2409 ± 352 ng/mL
Excretion amount (oral SF 50 mg/kg, 4 h): 43.994 ± 12.319 µg
Accumulative excretion amount (oral SF 50 mg/kg, 8 h): 80.066 ± 21.692 µg
Accumulative excretion percentage (oral SF 50 mg/kg, 8 h): 7.922±2.151%
Concentration (oral SF 50 mg/kg, 8 h): 1954 ± 115 ng/mL
Excretion amount (oral SF 50 mg/kg, 8 h): 36.072 ± 10.358 µg
Accumulative excretion amount (oral SF 50 mg/kg, 12 h): 119.118 ± 30.243 µg
Accumulative excretion percentage (oral SF 50 mg/kg, 12 h): 11.784±2.995%
Concentration (oral SF 50 mg/kg, 12 h): 2144 ± 142 ng/mL
Excretion amount (oral SF 50 mg/kg, 12 h): 39.052 ± 8.681 µg
Accumulative excretion amount (oral SF 50 mg/kg, 24 h): 133.750 ± 33.764 µg
Accumulative excretion percentage (oral SF 50 mg/kg, 24 h): 13.233±3.346%
Concentration (oral SF 50 mg/kg, 24 h): 791 ± 82 ng/mL
Excretion amount (oral SF 50 mg/kg, 24 h): 14.632 ± 4.256 µg
Accumulative excretion amount (oral SF 50 mg/kg, 36 h): 151.598 ± 37.989 µg
Accumulative excretion percentage (oral SF 50 mg/kg, 36 h): 15.001±3.762%
Concentration (oral SF 50 mg/kg, 36 h): 975 ± 39 ng/mL
Excretion amount (oral SF 50 mg/kg, 36 h): 17.848 ± 4.279 µg
Accumulative excretion amount (oral SF 50 mg/kg, 48 h): 152.707 ± 38.286 µg
Accumulative excretion percentage (oral SF 50 mg/kg, 48 h): 15.115±3.794%
Concentration (oral SF 50 mg/kg, 48 h): 60 ± 2 ng/mL
Excretion amount (oral SF 50 mg/kg, 48 h): 1.109 ± 0.297 µg
Accumulative excretion amount (oral SF 50 mg/kg, 72 h): 153.277 ± 38.442 µg
Accumulative excretion percentage (oral SF 50 mg/kg, 72 h): 15.161±3.803%
Concentration (oral SF 50 mg/kg, 72 h): 31 ± 2 ng/mL
Excretion amount (oral SF 50 mg/kg, 72 h): 0.570 ± 0.162 µg
Accumulative excretion amount (oral SF 50 mg/kg, 96 h): 153.277 ± 38.442 µg
Accumulative excretion percentage (oral SF 50 mg/kg, 96 h): 15.156±3.807%
Accumulative excretion amount (oral SF 50 mg/kg, 120 h): 153.277 ± 38.442 µg
Accumulative excretion percentage (oral SF 50 mg/kg, 120 h): 15.159±3.802%
cumulative fecal excretion ratio in the CNS group compared with the SF group (rats): 0.83 times
cumulative excretion ratio in feces (rats, oral CNS 110 mg/kg): 12.55%
cumulative excretion ratio in feces (rats, oral SF 50 mg/kg): 15.16%
Substance: hydroxysafflor yellow A [HSYA]
